The term IC50 denotes the point on the concentration scale where inhibition reaches its midpoint. A high value points to a need for much substance.

The target in test [1] is GST tagged Bcl w delta C29 protein (UniProt Q92843). The test can be described thus: AlphaScreen with GST detection; competitor: biotinylated Bim BH3-26 peptide.
The target of test [2] is 6-His tagged Bcl w delta C10 protein (UniProt Q92843). The test can be described thus: Biacore solution competition; competitor: immobilised mouse wtBimBH3 26-mer. On the technique in general: In SPR one partner is held on a chip, and binding of the other changes the refractive index at the surface.
The target of the next test is Bcl-2 ΔC22 (UniProt P10415). The test can be described thus: Biacore solution competition; competitor: immobilised mouse wtBimBH3 26-mer; column head prints Bcl-w ΔC22, the text Bcl-2 ΔC22.

As to hsBimL/Bod (81-106) (peptide), the concentration for half-maximal inhibition (IC50) in test [1] is 0.1 nM; in test [2], 6 nM; with Bcl-2 ΔC22 it was 2.6 nM.

Values taken from patent publication US20070197430A1, “Conjugates And Therapeutic Uses Thereof” (priority 2004, published 2007).
